Earlier results in patent US11957727B2, “Prevention of neuroinflammation associated memory loss using nutraceutical compositions” (priority 2020, dated 2024).

Columns and labels:
iNOS = conditions: 5 and 10 microM for 6-24 hr, versus macrophages without EGCG
ulcerative colitis (UC) = conditions: 50 and 100 mg/kg/day, compared with MD group

## Epigallocatechin-3-gallate [EGCG]
iNOS
  iNOS activity in soluble extracts: significantly lower
Ulcerative colitis (UC)
  disease activity index (DAI) and spleen index (SI): decreased DAIs and SIs
